# AlphaSeq binding of Ab-95 light chain variants to a spike HR2 peptide

Values reported by Engelhart et al. 2022, doi:10.1038/s41597-022-01779-4 (FLAb copy).

All variants were tested on one target, the spike HR2 peptide PDVDLGDISGINAS (SARS-CoV-2).

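Phage display of a naive human antibody library on the peptide gave the parent. Variants in AAYL52 differ from the parent at up to three CDR positions; double and triple changes were sampled at random. Affinity was read by AlphaSeq, a pooled yeast mating assay with surface-displayed partners. Pairs that bind mate more often; barcode pairs of the diploids are counted by sequencing. Scores were corrected for input abundance and mapped to Kd with protein pairs of known affinity run in the same pool. There are three technical replicates.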

Parent scFv Ab-95: VH joined to VL by the linker GGGGSGGGGSGGGGS. Changes lie in the light chain CDRs alone.
VH: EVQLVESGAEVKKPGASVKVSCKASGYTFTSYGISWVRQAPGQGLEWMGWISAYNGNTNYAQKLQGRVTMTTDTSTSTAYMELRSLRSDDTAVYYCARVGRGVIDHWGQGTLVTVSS
VL: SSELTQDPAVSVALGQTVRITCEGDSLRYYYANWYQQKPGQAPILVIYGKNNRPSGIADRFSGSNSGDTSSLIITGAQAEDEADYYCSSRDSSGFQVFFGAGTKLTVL

Variants are written as CDR1, CDR2 and CDR3 of the light chain (limits as in the source). Parent: EGDSLRYYYAN, GKNNRPS, SSRDSSGFQVF. Affinities are written as log10 Kd with Kd in nM; a lower number is a better binder. The mean shown is taken over the replicates in which the pair was detected. "ND" marks a missing value. The strain was present, yet no cells mated with the target were sequenced in that replicate, which points to weak or no binding. Empty control strains, which show no peptide, gave a signal in 28% of pairings with library AAYL52; the median was 3.91 and 95% of these signals were weaker than 2.90. No background was subtracted. Also given: how often the same scFv was detected with the empty control strains, with their mean in brackets.

CDR-L1	CDR-L2	CDR-L3	log10 Kd (nM) by replicate	log10 Kd (nM), mean	signal with controls
SGDSLRYYYAN	GKNNRPE	SSQDSSGFQVF	ND ND ND	ND	1 of 9 (3.23)
EGDSLRYYYAN	GKNNRPT	SSRDSIGFQVF	2.21 2.22 1.72	2.05	3 of 9 (3.91)
EGDSLRYYYAN	GKNNRPS	SSRDVSGFQEM	1.92 2.09 1.57	1.86	0 of 9
ECDSWRYSYAN	GKNNRPS	SSRDSSGFQVF	3.19 2.95 2.87	3.00	5 of 9 (3.96)
EGDSLRYYYAN	GKNNVPS	SSRDSSGFHVN	1.81 1.78 1.32	1.64	3 of 9 (4.07)
EGDSWRYYYAN	GKNNRPS	SSLDSSGFQVF	3.61 ND ND	3.61	3 of 9 (3.46)
EWDSLRYYYAS	GKNNRPS	SSRDSSNFQVF	4.40 3.76 ND	4.08	4 of 9 (3.95)
EGDSLRYYYAN	GRNNRPS	SIRDNSGFQVF	3.77 ND ND	3.77	1 of 9 (3.61)
EGDSLRYYYKN	GTNCRPS	SSRDSSGFQVF	ND 5.49 ND	5.49	2 of 9 (2.87)
EGDSLPYYYAN	FKNNRPS	SSRDSSGAQVF	ND 3.81 ND	3.81	2 of 9 (4.36)
EGDSLRYQYAN	GKNNRPS	SSRDSSGFQFF	1.50 1.45 0.97	1.31	2 of 9 (4.59)
EGDSLRYYYAN	NKNNRPS	NSRDSSGFMVF	3.45 4.95 ND	4.20	3 of 9 (3.53)
EGDSLRQYYAN	GKNNRPS	SSRDASGFQFF	3.29 4.13 3.08	3.50	4 of 9 (4.17)
EGDSLRYYYAE	GKNNRPC	SSRDSSGCQVF	3.10 4.45 3.46	3.67	4 of 9 (3.89)
EGDSLRYVYAN	CKNNPPS	SSRDSSGFQVF	5.13 ND ND	5.13	2 of 9 (3.88)
EGDSLRYYYAN	GKENRPS	SSRDSSGYQVF	2.34 2.32 2.07	2.24	4 of 9 (4.25)
EGDSLTYYYAN	GKNNRPS	SSRDSSGFQVF	2.33 2.28 2.16	2.26	3 of 9 (3.13)
EGDSLRYYYAN	GKNSRNS	SHRDSSGFQVF	ND ND ND	ND	0 of 9
EGDDLRYYYAN	GKNNRPS	VSRDSNGFQVF	ND ND 3.65	3.65	1 of 9 (5.10)
EGDSLDYYYAA	GKNNRPS	SSRDVSGFQVF	4.16 ND ND	4.16	3 of 9 (3.94)
EGDSLRYYYAN	GKNYRPR	SSRDSSRFQVF	ND ND ND	ND	3 of 9 (3.59)
EGDSLRYYYAN	GKNNVPS	SSRDESGFCVF	3.57 ND ND	3.57	1 of 9 (2.77)
EGESLRYYYQN	GKNNRWS	SSRDSSGFQVF	3.46 ND ND	3.46	6 of 9 (3.79)
EGDSLRAYYAN	GKNNRPS	SNRDSSGFQVP	4.55 ND ND	4.55	0 of 9
EGDSLRYYYSP	GKNNRPS	SSRDSSGFQVF	ND 4.45 ND	4.45	0 of 9
EGDELRYYYAN	GKNNRPS	SSRDSHGLQVF	3.61 3.13 2.63	3.13	3 of 9 (3.74)
EINSLRYYYMN	GKNNRPS	SSRDSSGFQVF	4.33 4.75 ND	4.54	6 of 9 (4.34)
ERDSLRYYYAN	GKNNLPS	SSRDSSGEQVF	2.77 2.61 4.40	3.26	2 of 9 (4.66)
EGDSLRYYYAN	GHNNRPS	SSRFSSGLQVF	ND ND ND	ND	2 of 9 (4.46)
EGDSLRAYYWN	GKNNRPS	RSRDSSGFQVF	ND ND ND	ND	0 of 9
EGDSLRYYYAN	FKNNRPS	KSRDSSGFQVF	ND 5.60 ND	5.60	0 of 9
GGDSLRYYYAN	GKRNRPS	SSRDSSGFQVT	3.37 3.72 ND	3.54	7 of 9 (3.77)
EGDSLRYYYAH	GKNNRPS	RSRDSSGYQVF	ND 3.07 ND	3.07	2 of 9 (3.91)
EGDSMRYYYAN	GKNNRPS	MSRASSGFQVF	4.31 ND ND	4.31	2 of 9 (3.74)
EMDSLRYYYAN	GKNNRPS	SDRDSSGFQVS	4.64 3.17 2.95	3.59	2 of 9 (2.85)
EGDSLMYYEAN	KKNNRPS	SSRDSSGFQVF	3.23 3.16 2.65	3.02	3 of 9 (3.63)
EGDSLRYYYAN	GKKNRSS	ESRDSSGFQVF	ND ND ND	ND	1 of 9 (3.11)
EGDSLRYYYAN	GRNNRPS	SYRDSWGFQVF	2.93 3.56 2.88	3.12	6 of 9 (4.03)
MRDSLRYYYAN	GKNNRPS	SSEDSSGFQVF	3.87 4.30 2.75	3.64	3 of 9 (3.51)
EEDSLRYYYAN	GKNNRKS	SSHDSSGFQVF	ND ND 4.21	4.21	3 of 9 (3.64)
EGDSLRYYYAH	GKNNRDS	PSRDSSGFQVF	3.04 4.20 ND	3.62	4 of 9 (3.82)
EGDSLRYYYAN	GKNNGPS	FSRDSSGFQPF	4.08 ND ND	4.08	4 of 9 (3.92)

A selection of 7 entries from above:

CDR-L1	CDR-L2	CDR-L3	log10 Kd (nM) by replicate	log10 Kd (nM), mean	signal with controls
ERDSLRYYYAN	GKNNLPS	SSRDSSGEQVF	2.77 2.61 4.40	3.26	2 of 9 (4.66)
EWDSLRYYYAS	GKNNRPS	SSRDSSNFQVF	4.40 3.76 ND	4.08	4 of 9 (3.95)
EGDSLRQYYAN	GKNNRPS	SSRDASGFQFF	3.29 4.13 3.08	3.50	4 of 9 (4.17)
EGDSLRYYYAN	GKENRPS	SSRDSSGYQVF	2.34 2.32 2.07	2.24	4 of 9 (4.25)
EGDSLDYYYAA	GKNNRPS	SSRDVSGFQVF	4.16 ND ND	4.16	3 of 9 (3.94)
EGDSLPYYYAN	FKNNRPS	SSRDSSGAQVF	ND 3.81 ND	3.81	2 of 9 (4.36)
EGDSLRAYYAN	GKNNRPS	SNRDSSGFQVP	4.55 ND ND	4.55	0 of 9